{"source": "patent US4137310A", "about": "“Method for the control of cattle grubs employing a phenylene bis[imino(thio]carbonyl)diphosphor(thio)-amidic acid ester” (dated 1979)", "key": {"[1]": {"system": "Cuterebra sp. larvae", "experiment": "Efficacy for the control of Cuterebra sp. in infested mice, dermal (dip) treatment", "conditions": "dermal dip in emulsion, male mice, 48 hours after infestation, examined 4 days posttreatment; concentration that kills 50% of the larvae, log-probit"}, "[2]": {"system": "Cuterebra sp. larvae", "experiment": "Efficacy for the control of Cuterebra sp. in infested mice, oral treatment", "conditions": "female mice, treated 48 hours after infestation, examined 4 days posttreatment, dosage that kills 50% of the larvae, log-probit"}}, "data": [{"smiles": "CCOP(=O)(NC(=S)Nc1ccccc1NC(=S)NP(=O)(OCC)OCC)OCC", "values": [{"measurement": "Dermal (mice) Dosage LC50", "setting": "[1]", "result": 0.06, "unit": "%"}, {"measurement": "Oral (mice) Dosage LD50", "setting": "[2]", "result": 14.1, "unit": "mg/kg"}]}, {"smiles": "CCOP(=O)(NC(=S)Nc1ccc(NC(=S)NP(=O)(OCC)OCC)c(Cl)c1)OCC", "values": [{"measurement": "Dermal (mice) Dosage LC50", "setting": "[1]", "result": 0.18, "unit": "%"}, {"measurement": "Oral (mice) Dosage LD50", "setting": "[2]", "result": 58.01, "unit": "mg/kg"}]}, {"smiles": "CCOP(=O)(NC(=S)Nc1ccc(Cl)cc1NC(=S)NP(=O)(OCC)OCC)OCC", "values": [{"measurement": "Dermal (mice) Dosage LC50", "setting": "[1]", "result": 0.031, "unit": "%"}, {"measurement": "Oral (mice) Dosage LD50", "setting": "[2]", "result": 4.86, "unit": "mg/kg"}]}]}
